Laboratory results taken from US10071965B2, “Pyridone FabI inhibitors and uses thereof” (priority 2015, dated 2018).

Details: mouse, in vivo

In the case of `CCCCCCc1cc(=O)c(Oc2ccccc2C)cn1C` [PT166], the “AUC0-24h, fold higher than PT04” value is reported as 5 fold and the “Cmax, fold higher than PT04” value is reported as 9 fold.
